Source: patent US20230203024A1, “THIAZOLOXIME AND OXAZOLOXIME DERIVATIVES AS REACTIVATORS OF ORGANOPHOSPHOROUS NERVE AGENT (OPNA)-INHIBITED HUMAN ACETYLCHOLINESTERASE FOR THE TREATMENT OF NERVOUS AND/OR RESPIRATORY FAILURE AFTER INTOXICATION WITH OPNA” (published 2023)

What was measured:
[1] = target: hAChE inhibited by VX (Homo sapiens, UniProt P22303); assay: Reactivation of VX-inhibited hAChE by oximes (modified Ellman assay, continuous method); conditions: for kr2 (second order reactivation rate constant) / kr (reactivation rate constant): OP: VX, 25° C.
[2] = target: hAChE inhibited by tabun (Homo sapiens, UniProt P22303); assay: Reactivation of tabun-inhibited hAChE by oximes (modified Ellman assay, continuous method); conditions: OP: Tabun; 25° C.
[3] = target: hAChE inhibited by sarin (Homo sapiens, UniProt P22303); assay: Reactivation of sarin-inhibited hAChE by oximes (modified Ellman assay, continuous method); conditions: OP: Sarin; 25° C.
[4] = target: hAChE inhibited by paraoxon (Homo sapiens, UniProt P22303); assay: Reactivation of paraoxon-inhibited hAChE by oximes (modified Ellman assay, continuous method); conditions: OP: Paraoxon; 25° C.

Compound	kr2 (second order reactivation rate constant) [1]	kr (reactivation rate constant) [1]	efficacy in reactivation of VX-hAChE (in words) [1]	kr2 (second order reactivation rate constant) [2]	kr (reactivation rate constant) [2]	kr2 (second order reactivation rate constant) [3]	kr (reactivation rate constant) [3]	kr2 (second order reactivation rate constant) [4]	kr (reactivation rate constant) [4]
Cl.ON=Cc1nc(CCc2ccccc2)cs1	4330 M⁻¹ s⁻¹	0.61 ± 0.01 min⁻¹	highly selective efficacy						
Cl.ON=Cc1cnc(CCc2cccnc2)s1	130 M⁻¹ s⁻¹	0.2 ± 0.008 min⁻¹		0 M⁻¹ s⁻¹	0 min⁻¹	26.7 M⁻¹ s⁻¹	0.18 ± 0.02 min⁻¹	33 M⁻¹ s⁻¹	0.6 ± 0.005 min⁻¹
Cl.ON=Cc1csc(CCc2cccnc2)n1	167 M⁻¹ s⁻¹	0.06 ± 0.002 min⁻¹		0 M⁻¹ s⁻¹	0 min⁻¹	450 M⁻¹ s⁻¹	0.08 ± 0.003 min⁻¹	15300 M⁻¹ s⁻¹	0.11 ± 0.004 min⁻¹
Cl.ON=Cc1csc(CCc2ncccn2)n1	130 M⁻¹ s⁻¹	0.38 ± 0.03 min⁻¹	highly selective efficacy						
Cl.ON=Cc1nc(CCCCc2cccnc2)cs1	700 M⁻¹ s⁻¹	0.54 ± 0.01 min⁻¹	highly selective efficacy						
Cl.ON=Cc1cnc(C#CCCNc2ccnc3ccccc23)s1	0 M⁻¹ s⁻¹	0 min⁻¹		0 M⁻¹ s⁻¹	0 min⁻¹	0 M⁻¹ s⁻¹	0 min⁻¹	0 M⁻¹ s⁻¹	0 min⁻¹
Cl.ON=Cc1csc(CCCCc2cccnc2)n1	583 M⁻¹ s⁻¹	0.07 ± 0.002 min⁻¹		0 M⁻¹ s⁻¹	0 min⁻¹	1470 M⁻¹ s⁻¹	0.3 ± 0.002 min⁻¹	83 M⁻¹ s⁻¹	0.3 ± 0.02 min⁻¹
Cl.ON=Cc1csc(CCc2ccncc2)n1	0 M⁻¹ s⁻¹	0 min⁻¹		0 M⁻¹ s⁻¹	0 min⁻¹	0 M⁻¹ s⁻¹	0 min⁻¹	0 M⁻¹ s⁻¹	0 min⁻¹
Cl.ON=Cc1csc(CCc2ccccn2)n1	0 M⁻¹ s⁻¹	0 min⁻¹		0 M⁻¹ s⁻¹	0 min⁻¹	0 M⁻¹ s⁻¹	0 min⁻¹	0 M⁻¹ s⁻¹	0 min⁻¹
Cl.ON=Cc1cnc(CCCCc2cccnc2)s1	11700 M⁻¹ s⁻¹	0.07 ± 0.0007 min⁻¹		0 M⁻¹ s⁻¹	0 min⁻¹	167 M⁻¹ s⁻¹	0.1 ± 0.002 min⁻¹	450 M⁻¹ s⁻¹	0.3 ± 0.008 min⁻¹
